Here are results for five compounds from patent US7273846B2, “Selective melanin-concentrating hormone type-1 receptor agonists” (priority 2002, dated 2007).

Protein sequences, listed by entry. Tags and fused reporters are not part of them. Lines headed by an entry give the natural chain unless they say otherwise; changes in a name come on top.
UniProt Q969V1: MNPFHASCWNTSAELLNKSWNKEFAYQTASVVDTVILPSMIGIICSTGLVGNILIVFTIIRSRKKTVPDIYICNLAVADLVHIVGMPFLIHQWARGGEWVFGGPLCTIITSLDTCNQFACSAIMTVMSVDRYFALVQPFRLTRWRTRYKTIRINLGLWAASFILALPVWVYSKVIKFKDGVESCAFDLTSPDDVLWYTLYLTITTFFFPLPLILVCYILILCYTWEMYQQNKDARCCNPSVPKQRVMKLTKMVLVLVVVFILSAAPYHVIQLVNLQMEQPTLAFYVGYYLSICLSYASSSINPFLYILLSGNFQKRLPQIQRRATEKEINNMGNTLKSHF
UniProt Q99705: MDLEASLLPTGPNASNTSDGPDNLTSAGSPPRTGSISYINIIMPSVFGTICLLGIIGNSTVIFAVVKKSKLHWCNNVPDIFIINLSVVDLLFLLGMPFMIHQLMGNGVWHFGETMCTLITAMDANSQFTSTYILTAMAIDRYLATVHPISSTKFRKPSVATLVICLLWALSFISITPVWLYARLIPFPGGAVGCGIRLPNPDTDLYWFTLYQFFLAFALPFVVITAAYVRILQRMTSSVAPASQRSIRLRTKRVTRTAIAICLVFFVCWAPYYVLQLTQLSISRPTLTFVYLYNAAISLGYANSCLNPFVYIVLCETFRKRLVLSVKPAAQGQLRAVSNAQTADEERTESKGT

What is called IC50 is the concentration needed to halve the response being measured. The term EC50 denotes the midpoint of the concentration-response curve.

Assay [1] concerns the target T1, MCH-2R (Homo sapiens, UniProt Q969V1). As to the kind of experiment: Radioligand binding assay (SPA), MCH-2R. To be noted: MCH-2R IC50, [125I]-[Phe13,Tyr19]-hMCH SPA, COS or CHO MCH-2R membranes.
The target in assay [2] is T1, MCH-2R. As to the kind of experiment: Aequorin bioluminescence functional assay, 293AEQ17/MCH-2R cells. The assay is classed as cell-based. On the set-up: expressed in transfected cells; concentration or dose not given beside the values. The conditions noted are these: human MCH = 100. From the text:
(§1) The aequorin bioluminescence assay is a reliable test for identifying G-protein-coupled receptors that couple through the G protein subunit family consisting of Gq and G11. Gq and G11 coupling leads to the activation of phospholipase C, mobilization of intracellular calcium, and activation of protein kinase C.
Stable cell lines expressing either the MCH-1R or the MCH-2R and the aequorin reporter protein were used.
(§2) The cells were harvested, washed once in ECB medium, and resuspended to 500,000 cells/mL. 100 μL of cell suspension (corresponding to 5×10^4 cells) was then injected into the test plate containing the hMCH peptides, and the integrated light emission was recorded over 30 seconds, in 0.5-s units. 20 μL of lysis buffer (0.1% final Triton X-100 concentration) was then injected and the integrated light emission recorded over 10 seconds, in 0.5-s units. The “fractional response” values for each well were calculated by taking the ratio of the integrated response to the initial challenge to the total integrated luminescence including the Triton X-100 lysis response.

Assay [3] has as its target T2, MCH-1R (Homo sapiens, UniProt Q99705). As to the kind of experiment: Aequorin bioluminescence functional assay, 293AEQ17/MCH-1R cells. Format: cell-based. More on the design: expressed in transfected cells. The conditions noted are these: for MCH-1R Activation %: human MCH = 100, activation at 10 μM concentration; for EC50: aequorin, 293AEQ17/MCH-1R cells. The protocol: as §1
Stable cell lines expressing either the MCH-1R or the MCH-2R and the aequorin reporter protein were used. The assay was performed using a Luminoskan RT luminometer (Labsystems Inc., Gaithersburg, Md.) controlled by custom software written for a Macintosh PowerPC 6100.
as §2

For assay [4], the target named is T2, MCH-1R.

In turn, `CCCC[C@@H](NC(C)=O)C(=O)N[C@H]1CSSC[C@@H](C(N)=O)NC(=O)[C@@H]2CCCN2C(=O)[C@H](CCCNC(=N)N)NC(=O)[C@H](Cc2ccc(O)cc2)NC(=O)[C@H](C(C)C)NC(=O)[C@H](CCCNC(=N)N)NC(=O)CNC(=O)[C@H](CC(C)C)NC(=O)[C@H](CCSC)NC1=O` [SEQ. ID. NO. 7] had an IC50 on MCH-2R [1] of 1460 nM. In addition, the “MCH-2R Activation %” value at MCH-2R [2] is on record as 69%. Further, at MCH-1R [3], the “Selectivity 2/1 (MCH-2R/MCH-1R EC50 activity ratio)” value was found to be 6.5 and the “MCH-1R Activation %” value is 115%. On MCH-1R [4], the “Selectivity 2/1 (MCH-2R/MCH-1R IC50 binding ratio)” value is 370.
Take `CSCC[C@@H]1NC(=O)[C@@H](NC(=O)[C@H]2CCCN2C(C)=O)CSSC[C@@H](C(N)=O)NC(=O)[C@@H]2CCCN2C(=O)[C@H](CCCNC(=N)N)NC(=O)[C@H](Cc2ccc(O)cc2)NC(=O)[C@H](C(C)C)NC(=O)[C@H](CCCNC(=N)N)NC(=O)CNC(=O)[C@H](CC(C)C)NC1=O` [SEQ. ID. NO. 8]: the “MCH-2R Activation %” value on MCH-2R [2] is reported as 82%. Also, on MCH-1R [3], the “Selectivity 2/1 (MCH-2R/MCH-1R EC50 activity ratio)” value was 7 and the “MCH-1R Activation %” value is recorded as 120%. The “Selectivity 2/1 (MCH-2R/MCH-1R IC50 binding ratio)” value at MCH-1R [4] was 790.
Consider `CSCC[C@@H]1NC(=O)[C@@H](NC(=O)[C@@H](CCC(=O)O)NC(C)=O)CSSC[C@@H](C(N)=O)NC(=O)[C@@H]2CCCN2C(=O)[C@H](CCCNC(=N)N)NC(=O)[C@H](Cc2ccc(O)cc2)NC(=O)[C@H](C(C)C)NC(=O)[C@H](CCCNC(=N)N)NC(=O)CNC(=O)[C@H](CC(C)C)NC1=O` [SEQ. ID. NO. 12], for which the “MCH-2R Activation %” value at MCH-2R [2] is listed as 20%. In addition, at MCH-1R [3], the “Selectivity 2/1 (MCH-2R/MCH-1R EC50 activity ratio)” value is 11 and the “MCH-1R Activation %” value worked out at 100%. Also, at MCH-1R [4], the “Selectivity 2/1 (MCH-2R/MCH-1R IC50 binding ratio)” value was determined as 430.
Turning to `CSCC[C@@H]1NC(=O)[C@@H](NC(=O)[C@@H](CC(N)=O)NC(C)=O)CSSC[C@@H](C(N)=O)NC(=O)[C@@H]2CCCN2C(=O)[C@H](CCCNC(=N)N)NC(=O)[C@H](Cc2ccc(O)cc2)NC(=O)[C@H](C(C)C)NC(=O)[C@H](CCCNC(=N)N)NC(=O)CNC(=O)[C@H](CC(C)C)NC1=O` [SEQ. ID. NO. 10], the “MCH-2R Activation %” value at MCH-2R [2] stood at 42%. For the same compound, at MCH-1R [3], the “Selectivity 2/1 (MCH-2R/MCH-1R EC50 activity ratio)” value is 22, the EC50 came out at 260 nM and the “MCH-1R Activation %” value stood at 113%. Also, the “Selectivity 2/1 (MCH-2R/MCH-1R IC50 binding ratio)” value at MCH-1R [4] was 700.
The corresponding values for `CSCC[C@@H]1NC(=O)[C@@H](NC(=O)[C@@H](CO)NC(C)=O)CSSC[C@@H](C(N)=O)NC(=O)[C@@H]2CCCN2C(=O)[C@H](CCCNC(=N)N)NC(=O)[C@H](Cc2ccc(O)cc2)NC(=O)[C@H](C(C)C)NC(=O)[C@H](CCCNC(=N)N)NC(=O)CNC(=O)[C@H](CC(C)C)NC1=O` [SEQ. ID. NO. 11] are 39%, 38, 160 nM, 114% and 4700.
